This note sets out measurements from patent US7399731B2, “Electrically conductive non-aqueous wellbore fluid” (M-I L.L.C., priority 2001, dated 2008).

The format of data set [1] is physicochemical. How it is done: Unbranched straight chain acid salts (commonly termed n-alkylcarboxylates) are not soluble in oil although the corresponding acids are soluble. […] We have observed similar behaviour in phosphates and sulphonates. Sulphates, phosphonates and […] similarly branched chains are expected to behave in essentially the same way. Oligomers of the branched chain salts are also expected to behave in essentially the same way. A variety of metal carboxylates were prepared in heptane by reacting […] 2-ethyl hexanoic acid directly with the metal of choice or with a metal base such as the hydride or hydroxide. […] The example described in detail below is potassium 2-ethyl hexanoate (FIG. 2), the other systems behaving in analogous manners (although the measured conductivities varied somewhat). Metal concentrations of up to about 2 M can be achieved and conductivities of up to about 2 ìS·cm^-1 at 20° C. were measured, such conductivities being above the level required for downhole electrical logging operations.

The nature of data set [2]: Electrical conductivity of solutions of the organic salts in non-aqueous solvents. Type of data set: physicochemical. How it is done: A variety of metal carboxylates were prepared in heptane by reacting versatic acid and 2-ethyl hexanoic acid directly with the metal of choice or with a metal base such as the hydride or hydroxide. Lithium, sodium, potassium, rubidium, calcium and gadolinium systems were synthesised.
A 1 molar solution of potassium bis(2-ethylhexyl) phosphate in Brij 30 was then prepared by dissolving 18.02 grams of the salt in 47.5 grams (50 ml) of the solubilising agent.
A 1 molar solution of AOT (Aldrich Chemicals) in Brij 30 was prepared by dissolving 22.23 grams of AOT in 47.5 grams (50 ml) of Brij 30.
The final AOT/neopentyl glycol/Brij 30 solution of FIG. 10 (i.e. 1 molar AOT and 2 molar neopentyl glycol in Brij 30) was then diluted with successive amounts of mineral spirits and the conductivity measured at each addition.

For the substance calcium versatate, the solubility in oil entry in data set [1] is listed as “particularly soluble in oil”.

As for potassium 2-ethyl hexanoate, the conductivity is given as 50 ìS·cm^−1 in data set [2] (2 M in ether solubilising agent such as 18-crown-6 or Brij 30 (heptane replaced), at 60° C.) and ~400 ìS·cm^−1 in data set [2] (in ether solubilising agent with neopentyl glycol solubilising agent added).
